Measured values as given in patent US4954483A, “Carboxylic acid ester derivatives or deglucoteicoplanin” (Gruppo Lepetit, S.p.A., priority 1984, dated 1990).

Assay: Potentiometric titration in methylcellosolve/water 4:1 (pKa, pH1/2)
Format: physicochemical
Conditions: methylcellosolve/water 4:1 (v/v), excess 0.01 M HCl, titrated with 0.01 M NaOH
Protocol: ^(c) the samples are dissolved in methylcellosolve ®/water 4:1
(v/v), an excess of 0.01 M hydrogen chloride in the same mixture is added
thereto and the resulting solution is titrated with 0.01 M NaOH in the […]

Substance: Deglucoteicoplanin pivaloyloxymethyl ester [Example 6]
- pKa: 6.52
